Source: ChEMBL document CHEMBL3769385 (J Med Chem, 2016)
Active and inactive are the calls of the source. The calls are words filed in the database; no cut-off is given here.

Amino acid sequences for entries named in this document (tags omitted).
UniProt P41595, whole entry: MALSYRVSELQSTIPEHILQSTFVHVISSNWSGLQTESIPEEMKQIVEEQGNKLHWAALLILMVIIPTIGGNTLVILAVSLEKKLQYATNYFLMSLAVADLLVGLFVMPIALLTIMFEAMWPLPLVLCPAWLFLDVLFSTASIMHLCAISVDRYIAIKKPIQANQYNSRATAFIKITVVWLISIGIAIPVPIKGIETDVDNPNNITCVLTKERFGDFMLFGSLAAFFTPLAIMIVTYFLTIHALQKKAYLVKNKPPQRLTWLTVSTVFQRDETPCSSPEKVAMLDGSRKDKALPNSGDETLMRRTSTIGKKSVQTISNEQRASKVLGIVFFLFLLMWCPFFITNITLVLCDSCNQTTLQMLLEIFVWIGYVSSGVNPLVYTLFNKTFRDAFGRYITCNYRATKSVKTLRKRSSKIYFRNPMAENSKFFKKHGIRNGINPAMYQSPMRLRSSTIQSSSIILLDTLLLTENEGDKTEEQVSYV
UniProt P28223, whole entry: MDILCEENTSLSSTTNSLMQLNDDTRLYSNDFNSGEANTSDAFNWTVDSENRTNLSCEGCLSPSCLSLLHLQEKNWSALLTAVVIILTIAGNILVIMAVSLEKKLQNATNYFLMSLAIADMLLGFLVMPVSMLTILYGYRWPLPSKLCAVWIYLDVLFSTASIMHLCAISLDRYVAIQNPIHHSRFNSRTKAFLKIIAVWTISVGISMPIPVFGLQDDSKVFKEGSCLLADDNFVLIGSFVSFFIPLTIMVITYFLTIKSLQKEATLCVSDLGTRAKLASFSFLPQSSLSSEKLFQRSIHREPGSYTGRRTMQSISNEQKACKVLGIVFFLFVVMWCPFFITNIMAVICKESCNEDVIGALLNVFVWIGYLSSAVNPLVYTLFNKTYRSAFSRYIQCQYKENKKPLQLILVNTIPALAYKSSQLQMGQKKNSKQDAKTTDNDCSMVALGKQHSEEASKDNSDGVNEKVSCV

Legend:
[1] = target: T1, 5-hydroxytryptamine receptor 2B (Homo sapiens, UniProt P41595); experiment: Agonist activity at recombinant human 5HT2B receptor expressed in Flp-In-293 cells assessed as calcium flux by FLIPR assay relative to 5-HT; format: functional, cell-based
[2] = target: T2, 5-hydroxytryptamine receptor 2A (Homo sapiens, UniProt P28223); experiment: Agonist activity at human 5HT2A receptor expressed in Flp-In-293 cells assessed as calcium flux by FLIPR assay relative to 5-HT; format: functional, cell-based
[3] = target: T2, 5-hydroxytryptamine receptor 2A
[4] = target: T2, 5-hydroxytryptamine receptor 2A; conditions: 10 uM
[5] = target: T1, 5-hydroxytryptamine receptor 2B; experiment: Agonist activity at recombinant human 5HT2B receptor expressed in Flp-In-293 cells assessed as calcium flux at 10 uM by FLIPR assay relative to 5-HT; format: functional, cell-based
[6] = target: T1, 5-hydroxytryptamine receptor 2B

| Compound | Emax [1] [%] | Emax [2] [%] | pEC50 [3] | Emax [4] [%] | Emax [5] [%] | pEC50 [6] |
| --- | --- | --- | --- | --- | --- | --- |
| C=CCOc1cc(Cl)c(Cl)cc1C1CC1CN (single isomer, unassigned; (+)) | 26 | 37 |  |  |  |  |
| C=CCOc1cc(F)c(Cl)cc1C1CC1CN (single isomer, unassigned; (+)) |  |  | inactive | < 15 |  |  |
| C=CCOc1ccc(Cl)c(Cl)c1C1CC1CN (single isomer, unassigned; (+)) |  |  | inactive | < 15 | < 15 | inactive |
| C=CCOc1ccc(Cl)c(F)c1C1CC1CN (single isomer, unassigned; (+)) |  |  | inactive | < 15 | < 15 | inactive |
| C=CCOc1ccc(F)c(Cl)c1C1CC1CN (single isomer, unassigned; (+)) |  |  | inactive | < 15 |  |  |
| C=CCOc1ccc(F)c(F)c1C1CC1CN (single isomer, unassigned; (+)) |  |  | inactive | < 15 |  |  |
| NCC1CC1c1c(OCCF)ccc(Cl)c1Cl (single isomer, unassigned; (+)) |  | 72 |  |  | < 15 | inactive |
| NCC1CC1c1c(OCCF)ccc(F)c1Cl (single isomer, unassigned; (+)) |  | 39 |  |  |  |  |
| NCC1CC1c1c(OCCF)ccc(F)c1F (single isomer, unassigned; (+)) |  | 30 |  |  |  |  |
| NCC1CC1c1cc(Cl)c(Cl)cc1OCCF (single isomer, unassigned; (+)) |  | 58 |  |  | < 15 | inactive |
| NCC1CC1c1cc(Cl)c(F)cc1OCCF (single isomer, unassigned; (+)) |  | 41 |  |  |  |  |
| NCC1CC1c1cc(F)c(F)cc1OCCF (single isomer, unassigned; (+)) | 32 | 51 |  |  |  |  |
| C=CCOc1cc(F)c(Cl)cc1C1CC1CN (single isomer, unassigned; (-)) |  |  | inactive | < 15 |  |  |
| C=CCOc1ccc(F)c(Cl)c1C1CC1CN (single isomer, unassigned; (-)) |  |  | inactive | < 15 | < 15 | inactive |
| C=CCOc1ccc(F)c(F)c1C1CC1CN (single isomer, unassigned; (-)) |  |  | inactive | < 15 |  |  |
| NCC1CC1c1c(OCCF)ccc(Cl)c1Cl (single isomer, unassigned; (-)) |  |  | inactive | < 15 | < 15 | inactive |
| NCC1CC1c1c(OCCF)ccc(Cl)c1F (single isomer, unassigned; (-)) |  |  | inactive | < 15 | < 15 | inactive |
| NCC1CC1c1c(OCCF)ccc(F)c1F (single isomer, unassigned; (-)) |  |  | inactive | < 15 | < 15 | inactive |
| NCC1CC1c1cc(Cl)c(Cl)cc1OCCF (single isomer, unassigned; (-)) |  |  | inactive | < 15 | < 15 | inactive |
| NCC1CC1c1cc(F)c(F)cc1OCCF (single isomer, unassigned; (-)) |  |  | inactive | < 15 | < 15 | inactive |
| COc1ccc(F)c(Cl)c1C1CC1CN (stereo in doubt; (+)-20g) |  |  |  |  | < 15 | inactive |
| NCC1CC1c1c(OCCF)ccc(Cl)c1F (stereo in doubt; (+)-21d) |  | 40 |  |  | < 15 | inactive |
| COc1cc(Cl)c(Cl)cc1C1CC1CN (stereo in doubt; (-)-20e) |  |  |  |  | < 15 | inactive |
| NCC1CC1c1cc(Cl)c(F)cc1OCCF (stereo in doubt; (-)-21c) |  |  | inactive | < 15 |  |  |
| NCC1CC1c1c(OCCF)ccc(F)c1Cl (stereo in doubt; (-)-21g) |  |  | inactive | < 15 | < 15 | inactive |
| C=CCOc1ccc(Cl)c(F)c1C1CC1CN (stereo in doubt; (-)-22d) |  | 60 |  |  | < 15 | inactive |
| C=CCOc1cc(Cl)c(Cl)cc1C1CC1CN (stereo in doubt; (-)-22e) |  |  | inactive | < 15 | < 15 | inactive |
| C=CCOc1ccc(Cl)c(Cl)c1C1CC1CN (stereo in doubt; (-)-22f) |  | 77 |  |  | < 15 | inactive |
